Measurements from publication PMC7450122.

B1: USP7 peptide D25 (1007-1024, …) [Homo sapiens (Human).] / GST-p65, purified recombinant [not stated] (parent)
chain 1: MDELFPLIFPAEPAQASGPYVEIIEQPKQRGMRFRYKCEGRSAGSIPGERSTDTTKTHPTIKINGYTGPGTVRISLVTKDPPHRPHPHELVGKDCRDGFYEAELCPDRCIHSFQNLGIQCVKKRDLEQAISQRIQTNNNPFQVPIEEQRGDYDLNAVRLCFQVTVRDPSGRPLRLPPVLSHPIFDNRAPNTAELKICRVNRNSGSCLGGDEIFLLCDKVQKEDIEVYFTGPGWEARGSFSQADVHRQVAIVFRTPPYADPSLQAPVRVSMQLRRPSDRELSEPMEFQYLPDTDDRHRIEEKRKRTYETFKSIMKKSPFSGPTDPRPPPRRIAVPSRSSASVPKPAPQPYPFTSSLSTINYDEFPTMVFPSGQISQASALAPAPPQVLPQAPAPAPAPAMVSALAQAPAPVPVLAPGPPQAVAPPAPKPTQAGEGTLSEALLQLQFDDEDLGALLGNSTDPAVFTDLASVDNSEFQQLLNQGIPVAPHTTEPMLMEYPEAITRLVTGAQRPPDPAPAPLGAPGLPNGLLSGDEDFSSIADMDFSALLSQISS
chain 2: FLLRIHQGEHFREVMKRI
B2: USP7 peptide 753-770 (Ubl2 domain), parent peptide of the alanine scan [not stated] / GST-p65, purified recombinant [not stated] (parent)
chain 1: B1 chain 1
chain 2: LDKALDELMDGDIIVFQK
B3: USP7 peptide E10 (1067-1084, …) [Homo sapiens (Human).] / GST-p65, purified recombinant [not stated] (parent)
chain 1: B1 chain 1
chain 2: PGNMSHPRPWLGLDHFNK
B4: USP7 peptide C15 (837-854, …) [Homo sapiens (Human).] / GST-p65, purified recombinant [not stated] (parent)
chain 1: B1 chain 1
chain 2: LQFFKSQGYRDGPGNPLR
B5: USP7 peptide C17 (…; printed first residue 841, counted here as 845-862) [Homo sapiens (Human).] / GST-p65, purified recombinant [not stated] (parent)
chain 1: B1 chain 1
chain 2: YRDGPGNPLRHNYEGTLR

Variants of: B1
Assay: alanine-scanning peptide array probed with GST-p65, anti-GST immunoblot

| Variant | percent of parent (% of parent peptide) |
| --- | --- |
| chain 2 E13A | < 60 |
| chain 2 F11A | < 60 |
| chain 2 H10A | < 60 |
| chain 2 I18A | < 60 |
| chain 2 R17A | < 60 |

Variants of: B2
Assay: as above

| Variant | percent of parent (% of parent peptide) |
| --- | --- |
| chain 2 D6A | < 60 |
| chain 2 E7A | < 60 |
| chain 2 L5A | < 60 |
| chain 2 L8A | < 60 |

Variants of: B3
Assay: as above

| Variant | percent of parent (% of parent peptide) |
| --- | --- |
| chain 2 P9A | < 60 |
| chain 2 R8A | < 60 |
| chain 2 K18A | < 60 |
| chain 2 L13A | < 60 |
| chain 2 W10A | < 60 |
| chain 2 H15A | < 60 |
| chain 2 D14A | < 60 |
| chain 2 F16A | < 60 |

Variants of: B4
Assay: as above

| Variant | percent of parent (% of parent peptide) |
| --- | --- |
| chain 2 P13A | < 60 |
| chain 2 G8A | < 60 |
| chain 2 R10A | < 60 |
| chain 2 R18A | < 60 |
| chain 2 G14A | < 60 |
| chain 2 N15A | < 60 |
| chain 2 D11A | < 60 |
| chain 2 L17A | < 60 |

Variants of: B5
Assay: as above

| Variant | percent of parent (% of parent peptide) |
| --- | --- |
| chain 2 D3A | < 60 |
| chain 2 E14A | < 60 |
| chain 2 G4A | < 60 |
| chain 2 G6A | < 60 |
| chain 2 G15A | < 60 |
| chain 2 L9A | < 60 |
| chain 2 L17A | < 60 |
| chain 2 N7A | < 60 |
| chain 2 N12A | < 60 |
| chain 2 R2A | < 60 |
| chain 2 R10A | < 60 |
| chain 2 R18A | < 60 |
| chain 2 Y13A | < 60 |
